Measured affinities in a library of Ab-14 heavy chain variants

Source: Li et al. 2023 (doi:10.1038/s41467-023-39022-2), MIT Lincoln Laboratory and A-Alpha Bio; data file from the FLAb repository.

All variants were tested on one target, the spike HR2 peptide PDVDLGDISGINAS (SARS-CoV-2).

The variants keep the light chain, the linker and the frameworks of Ab-14 (scFv order VH, three GGGGS repeats, VL).
VH: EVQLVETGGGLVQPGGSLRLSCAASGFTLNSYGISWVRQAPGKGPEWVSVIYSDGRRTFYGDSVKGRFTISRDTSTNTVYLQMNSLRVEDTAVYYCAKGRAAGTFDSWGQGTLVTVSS
VL: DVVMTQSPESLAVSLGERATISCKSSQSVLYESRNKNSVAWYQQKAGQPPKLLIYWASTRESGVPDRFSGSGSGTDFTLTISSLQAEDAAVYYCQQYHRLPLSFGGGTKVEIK

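The starting antibody came from a phage panning campaign against this peptide. This is the validation round: designs drawn from the data on random variants, tested in the same kind of assay. Their group label is 14H_GP_HC (GP: Gaussian process model; HC: hill climbing; a sequence that several methods proposed may carry one label only). AlphaSeq pools MATa yeast showing the antibodies with MATalpha yeast showing the peptide. Binding brings cells together so that they mate, and sequencing counts the barcode pairs among the diploids. The ratio of observed to expected reads was calibrated, replicate by replicate, on BCL2-family standards whose Kd was known from biolayer interferometry. The assay was run in six technical replicates.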

Substitutions are numbered in sequence along the VH above, starting at 1 (not Kabat).
The read-out is the apparent dissociation constant on a log10 scale (nM): the lower, the stronger.
An entry "ND" has no value in the source: the pair was not observed among the diploids in that replicate. This suggests poor binding but is not conclusive.
Of ten entries with the parent sequence, four were seen in most replicates (averages 0.34 to 2.37), three in one and three in none, so single entries are noisy.
In the paper, a design with two or fewer of six values counts as a poor binder.
A sequence measured in both rounds can read differently, since the two assays cover different ranges.
Empty control strains, which show no peptide, gave a signal in 1% of pairings with all heavy chain designs; the median was 2.08 and 95% of these signals were weaker than 0.84. No background was subtracted. For each scFv, signals with the empty controls are counted beside the result.

For G61T+R100M+A101C, the assay gave ND, ND, ND, 2.74, ND, ND (controls 0 of 18).
For T28N+S53A+G55M+R100E, the assay gave ND, ND, ND, ND, ND, ND (controls 0 of 18).
For T28H+S31D+G61I+A101C, the assay gave ND, ND, ND, ND, ND, ND (controls 0 of 18).
For S31E+G61S+A101T+D106M, the assay gave 2.32, ND, 0.91, 1.79, 1.42, 1.40 (controls 0 of 18).
For S31E+G61C+A101L+S107T, the assay gave 1.23, 1.13, 1.75, 0.84, 1.50, 1.11 (controls 0 of 18).
For G61D+R100Q+A101V+S107D, the assay gave 0.33, 0.96, 0.88, 1.00, 0.13, 0.74 (controls 0 of 18).
For S31D+R56L+F59W+G61I, the assay gave ND, -0.29, ND, -0.14, 0.38, ND (controls 0 of 18).
For N30D+R100E, the assay gave 0.24, 0.65, 0.88, -0.13, 0.68, 0.02 (controls 0 of 18).
For T28Q+S31E+G61S+A101D, the assay gave 0.57, 0.22, 0.76, 1.09, 0.47, 0.67 (controls 1 of 18).
For G61V+S63D+R100Q+A101L, the assay gave 2.12, ND, 0.93, 1.98, 1.51, 1.69 (controls 0 of 18).
For T28E+S31E+S53A+D106I, the assay gave ND, ND, ND, ND, ND, ND (controls 0 of 18).
For T28S+S31E+R100L+S107R, the assay gave 0.48, 0.59, 0.58, 0.43, 0.65, 0.92 (controls 1 of 18).
For S31E+R100H+A101F, the assay gave -0.02, -0.11, -0.45, -0.43, -0.32, -0.36 (controls 0 of 18).
For R56V+G61S+G103V, the assay gave ND, ND, ND, ND, ND, ND (controls 0 of 18).
For T28H+S31D+F59M+G61I, the assay gave 0.33, 1.57, 1.11, 0.74, 0.97, 0.51 (controls 3 of 18).
For S53A+A101H+D106K, the assay gave ND, ND, ND, ND, ND, ND (controls 0 of 18).
For T28E+S31D+R100K+D106W, the assay gave ND, ND, ND, ND, ND, ND (controls 0 of 18).
For N30E+S31N, the assay gave 0.60, 0.53, 0.06, 0.59, -0.20, 0.90 (controls 0 of 18).
For T28N+G61D+R100Q+A101V+T104K, the assay gave ND, ND, 3.10, 2.99, 1.69, 1.77 (controls 0 of 18).
For T28S+S31D+R56K, the assay gave 0.10, -0.17, -0.33, -0.28, -0.26, -0.16 (controls 0 of 18).
For G61E+R100K+A101L, the assay gave ND, ND, ND, ND, ND, ND (controls 0 of 18).
For S31D+F59M+G61I+A101S, the assay gave ND, 2.45, 0.83, ND, 2.01, ND (controls 0 of 18).
For T28Q+S31E+G61T+R100E+A101E, the assay gave 1.13, 1.09, 0.77, 0.46, 0.82, 1.95 (controls 0 of 18).
For T28N+S31E+F59Q+G61S, the assay gave 1.07, 1.63, 1.22, 1.05, 0.59, 1.44 (controls 0 of 18).
For S31N+G61I+R100Q+A101E, the assay gave ND, 1.53, ND, 1.28, 1.26, 2.15 (controls 0 of 18).
For T28H+S31D+F59Y+G61I, the assay gave ND, 1.43, 0.96, 0.76, 0.74, 1.66 (controls 0 of 18).
For T28N+S53A+G61V+R100Q, the assay gave 0.25, 0.24, 0.20, 0.23, 0.10, 0.24 (controls 0 of 18).
For R56L+G61I+A101I, the assay gave ND, ND, ND, 2.83, ND, ND (controls 0 of 18).
For T28A+G61D+R100K+A101L, the assay gave 2.79, 1.46, 2.47, 0.56, 1.09, 1.27 (controls 0 of 18).
For S31D+G61T+A101F+S107V, the assay gave 1.10, ND, ND, 1.51, 1.80, ND (controls 0 of 18).
For T28W+S31E+S63A+S107I, the assay gave 0.45, 0.69, ND, ND, ND, 1.39 (controls 0 of 18).
For S53A+R100T+S107M, the assay gave -0.11, 0.29, -0.33, -0.76, -0.65, -0.42 (controls 0 of 18).
For S31E+R56Q+G61S+T104R, the assay gave ND, ND, ND, ND, ND, ND (controls 0 of 18).
For S31E+G103V+D106N+S107Q, the assay gave 0.15, 0.32, 0.36, 0.63, 0.24, 1.21 (controls 0 of 18).
For G26Y+S31E+G61S+T104F+D106T, the assay gave ND, ND, ND, ND, ND, ND (controls 0 of 18).
For N30D+R56Q+S107R, the assay gave 1.37, 1.84, 1.77, 2.14, 3.12, 1.18 (controls 0 of 18).
For T28E+F59Q+G61I, the assay gave ND, ND, ND, ND, 0.54, 0.75 (controls 0 of 18).
For T28E+S31D+R100T, the assay gave ND, 1.17, ND, -0.21, 0.71, 0.70 (controls 0 of 18).
For T28E+S31D+G61I+A101F, the assay gave 1.11, 0.58, 0.44, 0.28, 0.93, 0.63 (controls 0 of 18).
For S31E+Y32M+G103V+S107T, the assay gave ND, ND, ND, ND, ND, ND (controls 0 of 18).
For T28G+S31E+A101N+D106I, the assay gave ND, ND, ND, ND, ND, ND (controls 0 of 18).
For T28D+S31E+F59M+A101C, the assay gave 0.81, 0.16, 0.29, ND, 1.25, -0.13 (controls 0 of 18).
For S31E+A101F+S107A, the assay gave 0.42, 0.15, 0.08, -0.16, 0.84, 1.03 (controls 0 of 18).
For T28E+S31D+F59A+G61I, the assay gave 0.27, -0.16, -0.15, -0.30, 0.08, 0.08 (controls 0 of 18).
For S53A+D106T+S107K, the assay gave ND, ND, ND, ND, ND, ND (controls 0 of 18).
For R100Q+A101V+T104K, the assay gave ND, ND, ND, ND, ND, ND (controls 0 of 18).
For T28D+F59A+G61S+A102G, the assay gave ND, 2.37, 1.79, 1.15, 2.11, 0.74 (controls 0 of 18).
For S31Q+R56Q+G61I, the assay gave 0.68, 1.08, 1.02, 1.46, 1.34, 1.42 (controls 0 of 18).
For N30D+S31Q+G61S+A101Q, the assay gave -0.14, -0.05, -0.73, -0.35, -0.63, -0.28 (controls 1 of 18).
For N30E+S53A+S63Q+D106K, the assay gave 1.86, 1.28, 1.47, 1.51, 2.25, 1.00 (controls 1 of 18).
For S31E+A101E+D106K+S107I, the assay gave 0.43, 0.18, ND, ND, -0.13, 1.12 (controls 0 of 18).

Repeated from above, the 4 best binders with a signal in all replicates:

{"changes": "N30D+S31Q+G61S+A101Q", "log10 Kd (nM) by replicate": "-0.14, -0.05, -0.73, -0.35, -0.63, -0.28", "empty controls": "1/18"}
{"changes": "S53A+R100T+S107M", "log10 Kd (nM) by replicate": "-0.11, 0.29, -0.33, -0.76, -0.65, -0.42", "empty controls": "0/18"}
{"changes": "S31E+R100H+A101F", "log10 Kd (nM) by replicate": "-0.02, -0.11, -0.45, -0.43, -0.32, -0.36", "empty controls": "0/18"}
{"changes": "T28S+S31D+R56K", "log10 Kd (nM) by replicate": "0.10, -0.17, -0.33, -0.28, -0.26, -0.16", "empty controls": "0/18"}